Source: publication PMC9814779, “A triple farnesoid X receptor and peroxisome proliferator-activated receptor α/δ activator reverses hepatic fibrosis in diet-induced NASH in mice” (Communications Chemistry, 2020)

Sequences of proteins named here, by UniProt entry; tags and fusion partners are left off. A change or cut given only in a name is not applied to a line headed by its entry. Residues count along the entry.
UniProt Q07869, 239-466 limits assumed, stated change not applied: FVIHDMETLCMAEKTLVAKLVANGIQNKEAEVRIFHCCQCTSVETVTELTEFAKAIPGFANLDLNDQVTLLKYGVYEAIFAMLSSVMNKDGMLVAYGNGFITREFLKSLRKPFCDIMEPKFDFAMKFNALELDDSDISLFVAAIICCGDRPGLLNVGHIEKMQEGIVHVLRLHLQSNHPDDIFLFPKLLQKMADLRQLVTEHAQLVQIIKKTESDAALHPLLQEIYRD
UniProt Q03181, 211-439 limits assumed, stated change not applied: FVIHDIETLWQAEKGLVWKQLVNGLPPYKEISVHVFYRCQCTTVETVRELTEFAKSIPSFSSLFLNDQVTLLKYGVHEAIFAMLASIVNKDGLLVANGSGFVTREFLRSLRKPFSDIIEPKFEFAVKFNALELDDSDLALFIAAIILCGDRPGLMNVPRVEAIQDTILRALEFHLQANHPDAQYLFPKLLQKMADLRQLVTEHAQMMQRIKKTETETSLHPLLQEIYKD
UniProt Q96RI1, whole entry: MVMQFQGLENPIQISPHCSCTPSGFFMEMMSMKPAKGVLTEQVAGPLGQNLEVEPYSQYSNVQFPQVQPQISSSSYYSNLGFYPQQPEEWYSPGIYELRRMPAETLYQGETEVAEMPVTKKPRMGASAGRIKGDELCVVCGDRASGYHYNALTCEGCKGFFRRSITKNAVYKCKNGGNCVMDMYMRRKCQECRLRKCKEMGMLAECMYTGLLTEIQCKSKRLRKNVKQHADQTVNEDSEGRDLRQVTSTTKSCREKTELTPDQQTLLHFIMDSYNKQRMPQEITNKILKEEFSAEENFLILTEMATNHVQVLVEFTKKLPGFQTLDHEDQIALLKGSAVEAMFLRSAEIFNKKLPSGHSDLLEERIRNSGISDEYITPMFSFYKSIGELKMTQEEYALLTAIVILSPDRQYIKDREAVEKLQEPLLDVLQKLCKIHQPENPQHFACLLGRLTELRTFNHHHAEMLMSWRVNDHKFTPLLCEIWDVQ
UniProt P19793, whole entry partner: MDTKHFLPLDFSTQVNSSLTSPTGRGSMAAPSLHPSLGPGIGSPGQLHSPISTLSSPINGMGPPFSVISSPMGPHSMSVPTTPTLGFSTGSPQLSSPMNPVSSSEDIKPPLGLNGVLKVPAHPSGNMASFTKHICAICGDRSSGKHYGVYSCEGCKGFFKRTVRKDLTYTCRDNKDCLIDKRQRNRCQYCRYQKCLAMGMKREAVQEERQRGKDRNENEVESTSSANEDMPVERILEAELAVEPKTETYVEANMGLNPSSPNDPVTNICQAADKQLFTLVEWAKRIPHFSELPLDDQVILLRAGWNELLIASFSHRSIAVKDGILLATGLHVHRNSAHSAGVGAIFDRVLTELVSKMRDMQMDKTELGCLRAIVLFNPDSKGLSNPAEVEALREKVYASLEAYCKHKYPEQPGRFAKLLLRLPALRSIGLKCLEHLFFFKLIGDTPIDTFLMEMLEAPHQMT

How the values were obtained:
[1] = target: human PPARα ligand-binding domain (Gal4 chimera) (Homo sapiens, UniProt Q07869); test: Gal4 hybrid reporter gene assay, PPARα; conditions: mean ± SEM, n = 3; for EC50: read-out: EC50 [μM] PPARα
Description: (§1) […] . Activity on PPARs was determined in hybrid reporter gene assays in HEK293T cells using chimeric receptors composed of the respective human PPAR subtype ligand-binding domain (LBD) and the DNA-binding domain of the yeast protein Gal4. A Gal4 inducible firefly luciferase construct served as reporter gene. FXR activation was determined in a full-length reporter gene assay in HeLa cells in which the firefly luciferase reporter was under the control of the FXR response element (RE) from the promoter region of human bile salt export protein (BSEP). This RE requires the entire human FXR:retinoid X receptor (RXR) heterodimer, and thus FXR and RXRα were overexpressed for the assay system. In both assays, a constitutively expressed renilla luciferase was co-transfected to serve for normalization of transfection efficiency and to observe test compound toxicity. […] .
(§2) For the hybrid reporter gene assays, the previously reported Gal4-fusion receptor plasmids pFA-CMV-hPPARα-LBD[29], pFA-CMV-hPPARδ-LBD[29], pFA-CMV-hPPARγ-LBD[29], pFA-CMV-hLXRα-LBD[30], pFA-CMV-hLXRβ-LBD[30], pFA-CMV-hRXRα-LBD[31], pFA-CMV-hRXRβ-LBD[31], pFA-CMV-hRXRγ-LBD[31], pFA-CMV-hRARα-LBD[31], pFA-CMV-hRARβ-LBD[31], pFA-CMV-hRARγ-LBD[31], pFA-CMV-hVDR-LBD[31], and pFA-CMV-hCAR-LBD[31] coding for the hinge region and LBD of the canonical isoform of the respective nuclear receptor were used. pFR-Luc (Stratagene) was used as reporter plasmid for Gal4 hybrid reporter gene assays. pcDNA3-hFXR[32] and pSG5-hRXR[33] served for receptor overexpression in the full-length FXR assay and pGL3basic (Promega Corporation, Fitchburg, WI, USA) with a shortened construct of the BSEP promoter cloned into the SacI/NheI cleavage site in front of the luciferase gene[34] was used as reporter. PPRE-pGL3[35] contains the human full-length PPRE (cloned into the SacI/NheI cleavage site in front of the luciferase gene) and was used as reporter plasmid for the full-length PPRE reporter gene assay. pRL-SV40 (Promega) was used in all assays for normalization of transfection efficiency and cell growth.
(§3) HEK293T cells (German Collection of Microorganisms and Cell Cultures, DSMZ) were used for the Gal4 hybrid reporter gene assays and the PPRE assay. HEK293T cells were grown in Dulbecco’s modified Eagle’s medium (DMEM) high glucose, supplemented with 10% fetal serum bovine (FCS), sodium pyruvate (1 mM), penicillin (100 U/mL), and streptomycin (100 μg/mL) at 37 °C and 5% CO2. The day before transfection, HEK293T cells were seeded in 96-well plates (3 × 10^4 cells/well). Before transfection, medium was changed to Opti-MEM without supplements. Transient transfection was carried out using Lipofectamine LTX reagent (Invitrogen) according to the manufacturer’s protocol with pFR-Luc (Stratagene), pRL-SV40 (Promega), and the corresponding Gal4-fusion nuclear receptor plasmid. Five hours after transfection, medium was changed to Opti-MEM supplemented with penicillin (100 U/mL), streptomycin (100 μg/mL), and now additionally containing 0.1% DMSO and the respective test compound or 0.1% DMSO alone as untreated control. Each concentration was tested in duplicates, and each experiment was repeated in at least three biologically independent repeats. Following overnight (12–14 h) incubation with the test compounds, cells were assayed for luciferase activity using Dual-Glo™ Luciferase Assay System (Promega) according to the manufacturer’s protocol. […]

[2] = target: human PPARδ ligand-binding domain (Gal4 chimera) (Homo sapiens, UniProt Q03181); test: Gal4 hybrid reporter gene assay, PPARδ; conditions: mean ± SEM, n = 3; for EC50: read-out: EC50 [μM] PPARδ
[3] = target: human PPARγ ligand-binding domain (Gal4 chimera) (Homo sapiens, UniProt P37231); test: Gal4 hybrid reporter gene assay, PPARγ; conditions: mean ± SEM, n = 3; for EC50: read-out: EC50 [μM] PPARγ; for max. rel. act. PPARγ: relative to rosiglitazone at 1 µM
Description: as §1, §2
as §3, with “protocol. HeLa cells (DSMZ) were used for the full-length FXR assay and were grown in DMEM high glucose supplemented with 10% FCS, sodium pyruvate (1 mM), penicillin (100 U/mL), and streptomycin (100 μg/mL) at 37 °C and 5% CO2. Twenty-four hours before transfection, cells were seeded in 96-well plates with a density of 8000 cells per well. Three and a half hours before transfection, medium was changed to DMEM high glucose, supplemented with sodium pyruvate (1 mM), penicillin (100 U/mL), streptomycin (100 μg/mL), and 0.5% charcoal-stripped FCS.” for “protocol.”

[4] = target: human FXR:retinoid X receptor (RXR) heterodimer (Homo sapiens, UniProt Q96RI1); test: Full-length FXR reporter gene assay (BSEP response element) in HeLa cells; conditions: mean ± SEM, n = 3; for max. rel. act. FXR: relative to GW4064 at 3 µM

O=C(O)Cc1ccc(NC(=O)c2ccccc2NC(=O)c2ccc3ccccc3c2)cc1
EC50 ([1]; HEK293T): > 30 µM
EC50 ([2]; HEK293T): > 30 µM
EC50 ([3]; HEK293T): > 30 µM
max. rel. act. FXR [4]: 9.8 ± 0.4%

O=C(O)c1ccc(NC(=O)c2ccccc2NC(=O)c2ccc3ccccc3c2)cc1
EC50 ([1]; HEK293T): > 30 µM
EC50 ([2]; HEK293T): > 30 µM
EC50 ([3]; HEK293T): 4.4 µM
max. rel. act. PPARγ [3]: 18 ± 2%
max. rel. act. FXR [4]: 23 ± 1%

O=C(O)c1cccc(NC(=O)c2ccccc2NC(=O)c2ccc3ccccc3c2)c1
EC50 ([1]; HEK293T): 0.15 µM
max. rel. act. PPARα ([1]; relative to GW7647 at 1 µM): 11 ± 1%
EC50 ([2]; HEK293T): 1.3 µM
max. rel. act. PPARδ ([2]; relative to L165,041 at 1 µM): 14 ± 1%
EC50 ([3]; HEK293T): 1.6 µM
max. rel. act. PPARγ [3]: 17 ± 1%
max. rel. act. FXR [4]: 37 ± 1%

O=C(Nc1ccccc1C(=O)Nc1ccccc1C(=O)O)c1ccc2ccccc2c1
EC50 [μM] PPARα ([1]; HEK293T): tox.
EC50 [μM] PPARδ ([2]; HEK293T): tox.
EC50 [μM] PPARγ ([3]; HEK293T): tox.
EC50 ([4]; read-out: EC50 [μM] FXR, HeLa): 7 µM
max. rel. act. FXR [4]: 44 ± 3%
